Values quoted from earlier work in US20030008014A1, “Truncated apolipoprotein B-containing lipoprotein particles for delivery of compounds to tissues or cells” (priority 2001, published 2003).

System: HER2-positive breast tumors
Settings: simultaneous administration with paclitaxel

## Herceptin™: anti-HER2 monoclonal antibody
  efficacy of the combination versus single agents: greater efficacy than either agent administered alone
